The values below are quoted from earlier work in patent US12637471B2, “Heterocyclic compounds, compositions, methods of preparation and uses thereof” (Organon R&D Finland Ltd, priority 2021, dated 2026).

Sequences of proteins named here, by UniProt entry; tags and fusion partners are left off.
UniProt P42330, whole entry: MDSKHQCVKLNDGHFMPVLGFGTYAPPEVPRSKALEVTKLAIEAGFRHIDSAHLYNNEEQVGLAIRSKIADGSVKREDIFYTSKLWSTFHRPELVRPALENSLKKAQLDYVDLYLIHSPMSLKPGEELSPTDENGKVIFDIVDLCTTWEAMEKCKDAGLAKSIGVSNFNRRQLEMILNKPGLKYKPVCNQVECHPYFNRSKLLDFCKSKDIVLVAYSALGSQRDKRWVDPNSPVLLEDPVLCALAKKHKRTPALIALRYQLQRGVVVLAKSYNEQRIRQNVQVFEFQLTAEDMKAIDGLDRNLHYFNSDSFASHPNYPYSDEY

This data set deals with AKR1C3 (Homo sapiens, UniProt P42330). The conditions noted are these: read-out: AKR1C3 IC50-value; literature value; cited from earlier work.

SMILES strings stand for the structures.

As to `O=C(N1CCOCC1)N1CCN(c2ccc(Cl)cc2Cl)CC1`, the half-maximal inhibitory concentration (IC50) (as a rule, the concentration at which inhibition is half-maximal) was 110 nM.
